Experimental data reported in BigSolDB 2.1.

Cc1ccccc1S(N)(=O)=O
solubility (mole fraction)
Details	in acetone	in acetonitrile	in ethanol	in ethyl acetate	in isobutanol	in isopropanol	in methanol	in n-butanol	in n-propanol
289.15 K	–	0.0258	–	–	–	–	–	–	–
293.65 K	0.0973	–	0.0166	0.0336	0.0059	0.00915	0.0269	0.0083	0.0103
